Test results as given in patent publication US8981112B2, “Inhibitors of β-secretase” (Boehringer Ingelheim International GmbH, priority 2012, dated 2015).

Chains of the proteins cited; added tags and fusions are not shown. Residues count along the entry.
UniProt P56817, 22-454: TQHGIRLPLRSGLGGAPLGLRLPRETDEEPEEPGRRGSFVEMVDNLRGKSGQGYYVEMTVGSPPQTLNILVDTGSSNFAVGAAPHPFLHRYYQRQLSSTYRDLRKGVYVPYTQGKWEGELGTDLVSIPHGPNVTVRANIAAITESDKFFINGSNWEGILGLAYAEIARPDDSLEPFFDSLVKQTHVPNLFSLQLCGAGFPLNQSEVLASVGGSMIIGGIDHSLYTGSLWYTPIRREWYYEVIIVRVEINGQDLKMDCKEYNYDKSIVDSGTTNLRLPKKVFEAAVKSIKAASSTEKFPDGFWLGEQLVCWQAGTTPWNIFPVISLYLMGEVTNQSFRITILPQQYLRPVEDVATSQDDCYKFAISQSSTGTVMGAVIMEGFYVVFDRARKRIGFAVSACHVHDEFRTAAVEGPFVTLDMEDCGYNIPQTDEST

Biological target: truncated human beta-secretase, BACE1 (amino acids 1-454) (Homo sapiens (Human), UniProt P56817)
Experiment: BACE1 Assay (Assay 1), fluorescence quench assay
Type: biochemical
Method: The inhibitory activity of compounds was assessed by a fluorescence quench assay of BACE1 activity using commercially available substrate HiLyte Fluor™488-Glu-Val-Asn-Leu-Asp-Ala-Glu-Phe-Lys-(QXLT™ 520)-OH (SEQ ID NO:1) AnaSpec, San Jose, Calif.) and truncated human beta-secretase, BACE1 (amino acids 1-454) fused to a myc-his tag and secreted from HEK293/BACEect. cells into OptiMEM™ (Invitrogen). The substrate was dissolved at 1 mg/ml in DMSO.
The assay was performed in the presence of OptiMEM (supernatant collected over 24 h and cleared from cellular debris by centrifugation) containing the ectodomain of BACE1, 25 μl water containing the desired 2-fold concentration of test compound and 2% DMSO, 1 μM substrate peptide, 20 mM NaOAc, pH 4.4, and 0.04% Triton-X100 in a total assay volume of 50 μl in a 384 well plate. […] The reaction was incubated at rt (dark) in an Envision® multilabel reader (Perkin Elmer) and the cleavage of the substrate was recorded as kinetic for 60 min at ex: 485 nm, em: 538 nm. […]
The intensity of fluorescence was regressed against time in order to derive velocities of reaction in all 384 wells. […] IC50 values were calculated by fitting percent control vs. test compound concentration using Assay Explorer.

| SMILES | IC50 (Table 2 comparison examples, read-out: BACE IC50 (assay 1)) | IC50 (read-out: BACE1 IC50 nM (assay 1)) |
| --- | --- | --- |
| COC1CCC2(CC1)Cc1ccc(C#N)cc1C21N=C(N)N(CC2CCCO2)C1=O (centres unmarked) [Comparison example drawing 11, reference compound] | 35 nM |  |
| CC[C@H]1C[C@@]2(CC[C@@H]1OC)Cc1ccc(C#N)cc1[C@]21N=C(N)N(C[C@H]2CCCO2)C1=O [Example 5] |  | 8 nM |

Read-outs that look alike come from different tables or passages of the source.
